In this experiment the test system is Male CD-1 mice. To be noted: 10 mg/kg 30 min before test; naloxone 3 mg/kg i.p. pre-treatment.

Molecules are shown by their SMILES.

Turning to `O=C1CN2c3c(cccc3[C@@H]3CN(CCCOc4ccc(F)cc4)CC[C@@H]32)N1` [Example 2, (6bR,10aS)-8-(3-(4-fluorophenoxy)propyl)-6b,7,8,9,10,10a-hexahydro-1H-pyrido[3′,4′:4,5]pyrrolo[1,2,3-de]quinoxalin-2(3H)-one], the mean latency was 2.1 s.

For the origin of these results see patent publication US12173004B2, “Pharmaceutical compositions comprising heterocycle fused gamma carboline prodrugs” (INTRA-CELLULAR THERAPIES, INC., priority 2017, dated 2024).
